Source: patent US20240360179A1, “STAPLED PEPTIDES AND METHODS THEREOF” (FOG PHARMACEUTICALS, INC., priority 2021, published 2024)

Protein sequences, listed by entry. Tags and fused reporters are not part of them.
UniProt P35222, whole entry: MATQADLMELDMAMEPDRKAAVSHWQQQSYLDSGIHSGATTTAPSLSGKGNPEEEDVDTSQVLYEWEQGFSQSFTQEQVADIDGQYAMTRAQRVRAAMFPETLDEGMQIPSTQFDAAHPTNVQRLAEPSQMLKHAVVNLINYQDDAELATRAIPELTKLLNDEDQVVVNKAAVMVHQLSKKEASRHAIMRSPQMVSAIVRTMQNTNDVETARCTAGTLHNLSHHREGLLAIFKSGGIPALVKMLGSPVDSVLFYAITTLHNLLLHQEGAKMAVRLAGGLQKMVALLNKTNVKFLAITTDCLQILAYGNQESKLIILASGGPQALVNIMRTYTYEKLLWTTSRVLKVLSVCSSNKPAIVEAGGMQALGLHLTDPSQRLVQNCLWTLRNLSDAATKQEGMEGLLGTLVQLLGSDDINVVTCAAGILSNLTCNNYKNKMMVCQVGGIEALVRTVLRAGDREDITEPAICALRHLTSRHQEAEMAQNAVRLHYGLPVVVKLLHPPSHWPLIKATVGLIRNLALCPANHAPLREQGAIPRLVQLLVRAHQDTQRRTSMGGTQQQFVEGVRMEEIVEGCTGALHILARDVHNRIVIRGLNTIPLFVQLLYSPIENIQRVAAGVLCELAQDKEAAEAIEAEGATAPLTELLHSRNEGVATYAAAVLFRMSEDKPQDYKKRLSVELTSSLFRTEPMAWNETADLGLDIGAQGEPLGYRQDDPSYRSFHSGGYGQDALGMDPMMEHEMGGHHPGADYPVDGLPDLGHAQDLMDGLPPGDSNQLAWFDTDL

Target: T1, full-length B-Catenin (Uniprot ID P35222) (Homo sapiens, UniProt P35222)
T1 construct: 10 nM full-length B-Catenin (Uniprot ID P35222)
Test: biochemical
Assay type: binding
Settings: beta-Catenin FP IC50 (nM), competition fluorescence polarization

IC50, 50 to 200 nM:
CC(=O)N1CCC[C@]12CC=CCCCC1(CCCC=CCCCOC(=O)N3CC[C@@]4(C3)NC(=O)[C@H](CCCCNC(=O)CC[C@@H](C(=O)N[C@@H](C)C(N)=O)NC(=O)[C@H](Cc3csc5ccccc35)NC(=O)[C@H](Cc3ccccc3C(=O)O)NC4=O)NC(=O)[C@H](Cc3cccc(C(=O)O)c3)NC(=O)[C@H](C)NC(=O)C(C)(C)NC(=O)[C@H](Cc3cccc(C(=O)O)c3)NC(=O)[C@H](CC(=O)O)NC1=O)NC(=O)[C@H](CC(C)(C)C)NC(=O)[C@H](CC(=O)O)NC2=O (relative stereo) [I-346, Ac-PL3-Asp-Npg-B5-Asp-3COOHF-Aib-Ala-3COOHF-Lys*3-PyrS2-2COOHF-BztA-GlnR*3-Ala-NH2]
CC(=O)N1CCC[C@]12CC=CCCCC1(CCCC=CCCCOC(=O)N3CC[C@@]4(C3)NC(=O)[C@H](CCCCNC(=O)CC[C@@H](C(=O)N[C@@H](C)C(N)=O)NC(=O)[C@H](Cc3csc5ccccc35)NC(=O)[C@H](Cc3ccsc3)NC4=O)NC(=O)[C@H](CCO)NC(=O)[C@H](C)NC(=O)C(C)(C)NC(=O)[C@H](Cc3cccc(C(=O)O)c3)NC(=O)[C@H](CC(=O)O)NC1=O)NC(=O)[C@H](CC(C)(C)C)NC(=O)[C@H](CC(=O)O)NC2=O (relative stereo) [I-367, Ac-PL3-Asp-Npg-B5-Asp-3COOHF-Aib-Ala-Hse-Lys*3-PyrS2-3Thi-BztA-GlnR*3-Ala-NH2]

IC50, > 1000 nM:
CC[C@H](C)[C@@H]1NC(=O)[C@H](C)NC(=O)C(C)(C)NC(=O)[C@H](Cc2cccc(C(=O)O)c2)NC(=O)[C@H](CC(=O)O)NC(=O)C2(CCCC=CCCCOC(=O)N3CC[C@@]4(C3)NC(=O)[C@H](CCCCNC(=O)CC[C@@H](C(=O)N[C@@H](C)C(N)=O)NC(=O)[C@H](Cc3csc5ccccc35)NC(=O)[C@H](Cc3ccsc3)NC4=O)NC1=O)CCCC=CC[C@]1(CCCN1C(C)=O)C(=O)N[C@@H](CC(=O)O)C(=O)N[C@@H](CC(C)(C)C)C(=O)N2 (relative stereo) [I-361, Ac-PL3-Asp-Npg-B5-Asp-3COOHF-Aib-Ala-Ile-Lys*3-PyrS2-3Thi-BztA-GlnR*3-Ala-NH2]
CC(=O)N1CCC[C@]12CC=CCCCC1(CCCC=CCCCOC(=O)N3CC[C@@]4(C3)NC(=O)[C@H](CCCCNC(=O)CC[C@@H](C(=O)N[C@@H](C)C(N)=O)NC(=O)[C@H](Cc3csc5ccccc35)NC(=O)[C@H](Cc3ccsc3)NC4=O)NC(=O)[C@H](C3CCCCC3)NC(=O)[C@H](C)NC(=O)C(C)(C)NC(=O)[C@H](Cc3cccc(C(=O)O)c3)NC(=O)[C@H](CC(=O)O)NC1=O)NC(=O)[C@H](CC(C)(C)C)NC(=O)[C@H](CC(=O)O)NC2=O (relative stereo) [I-366, Ac-PL3-Asp-Npg-B5-Asp-3COOHF-Aib-Ala-Chg-Lys*3-PyrS2-3Thi-BztA-GlnR*3-Ala-NH2]
CC(=O)N1CCC[C@]12CC=CCCCC1(CCCC=CCCCOC(=O)N3CC[C@@]4(C3)NC(=O)[C@H](CCCCNC(=O)CC[C@@H](C(=O)N[C@@H](C)C(N)=O)NC(=O)[C@H](Cc3csc5ccccc35)NC(=O)[C@H](Cc3ccsc3)NC4=O)NC(=O)[C@H]([C@@H](C)O)NC(=O)[C@H](C)NC(=O)C(C)(C)NC(=O)[C@H](Cc3cccc(C(=O)O)c3)NC(=O)[C@H](CC(=O)O)NC1=O)NC(=O)[C@H](CC(C)(C)C)NC(=O)[C@H](CC(=O)O)NC2=O (relative stereo) [I-370, Ac-PL3-Asp-Npg-B5-Asp-3COOHF-Aib-Ala-Thr-Lys*3-PyrS2-3Thi-BztA-GlnR*3-Ala-NH2]
CC(=O)N1CCC[C@]12CC=CCCCC1(CCCC=CCCCOC(=O)N3CC[C@@]4(C3)NC(=O)[C@H](CCCCNC(=O)CC[C@@H](C(=O)N[C@@H](C)C(N)=O)NC(=O)[C@H](Cc3csc5ccccc35)NC(=O)[C@H](Cc3ccsc3)NC4=O)NC(=O)[C@H](C(C)C)NC(=O)[C@H](C)NC(=O)C(C)(C)NC(=O)[C@H](Cc3cccc(C(=O)O)c3)NC(=O)[C@H](CC(=O)O)NC1=O)NC(=O)[C@H](CC(C)(C)C)NC(=O)[C@H](CC(=O)O)NC2=O (relative stereo) [I-372, Ac-PL3-Asp-Npg-B5-Asp-3COOHF-Aib-Ala-Val-Lys*3-PyrS2-3Thi-BztA-GlnR*3-Ala-NH2]
CC(=O)N1CCC[C@]12CC=CCCCC1(CCCC=CCCCOC(=O)N3CC[C@@]4(C3)NC(=O)[C@H](CCCCNC(=O)CC[C@@H](C(=O)N[C@@H](C)C(N)=O)NC(=O)[C@H](Cc3csc5ccccc35)NC(=O)[C@H](Cc3ccsc3)NC4=O)NC(=O)[C@H](CC(N)=O)NC(=O)[C@H](C)NC(=O)C(C)(C)NC(=O)[C@H](Cc3cccc(C(=O)O)c3)NC(=O)[C@H](CC(=O)O)NC1=O)NC(=O)[C@H](CC(C)(C)C)NC(=O)[C@H](CC(=O)O)NC2=O (relative stereo) [I-373, Ac-PL3-Asp-Npg-B5-Asp-3COOHF-Aib-Ala-Asn-Lys*3-PyrS2-3Thi-BztA-GlnR*3-Ala-NH2]

IC50, 750 to 1000 nM:
CC(=O)N1CCC[C@]12CC=CCCCC1(CCCC=CCCCOC(=O)N3CC[C@@]4(C3)NC(=O)[C@H](CCCCNC(=O)CC[C@@H](C(=O)N[C@@H](C)C(N)=O)NC(=O)[C@H](Cc3csc5ccccc35)NC(=O)[C@H](Cc3ccsc3)NC4=O)NC(=O)[C@H](CC(C)C)NC(=O)[C@H](C)NC(=O)C(C)(C)NC(=O)[C@H](Cc3cccc(C(=O)O)c3)NC(=O)[C@H](CC(=O)O)NC1=O)NC(=O)[C@H](CC(C)(C)C)NC(=O)[C@H](CC(=O)O)NC2=O (relative stereo) [I-360, Ac-PL3-Asp-Npg-B5-Asp-3COOHF-Aib-Ala-Leu-Lys*3-PyrS2-3Thi-BztA-GlnR*3-Ala-NH2]

IC50, < 50 nM:
CC(=O)N1CCC[C@]12CC=CCCCC1(CCCC=CCCCOC(=O)N3CC[C@@]4(C3)NC(=O)[C@H](CCCCNC(=O)CC[C@@H](C(=O)N[C@@H](C)C(N)=O)NC(=O)[C@H](Cc3cccc(Br)c3)NC(=O)[C@H](Cc3ccccc3C(F)(F)F)NC4=O)NC(=O)[C@H](Cc3ccccc3)NC(=O)[C@H](C)NC(=O)C(C)(C)NC(=O)[C@H](Cc3cccc(C(=O)O)c3)NC(=O)[C@H](CC(=O)O)NC1=O)NC(=O)[C@H](CC(C)(C)C)NC(=O)[C@H](CC(=O)O)NC2=O (relative stereo) [I-331, Ac-PL3-Asp-Npg-B5-Asp-3COOHF-Aib-Ala-Phe-Lys*3-PyrS2-2F3MeF-3BrF-GlnR*3-Ala-NH2]
CC(=O)N1CCC[C@]12CC=CCCCC1(CCCC=CCCCOC(=O)N3CC[C@@]4(C3)NC(=O)[C@H](CCCCNC(=O)CC[C@@H](C(=O)N[C@@H](C)C(N)=O)NC(=O)[C@H](Cc3cccc(Br)c3)NC(=O)[C@H](Cc3ccccc3)NC4=O)NC(=O)[C@H](Cc3ccccc3)NC(=O)[C@H](C)NC(=O)C(C)(C)NC(=O)[C@H](Cc3cccc(C(=O)O)c3)NC(=O)[C@H](CC(=O)O)NC1=O)NC(=O)[C@H](CC(C)(C)C)NC(=O)[C@H](CC(=O)O)NC2=O (relative stereo) [I-333, Ac-PL3-Asp-Npg-B5-Asp-3COOHF-Aib-Ala-Phe-Lys*3-PyrS2-Phe-3BrF-GlnR*3-Ala-NH2]
CC(=O)N1CCC[C@]12CC=CCCCC1(CCCC=CCCCOC(=O)N3CC[C@@]4(C3)NC(=O)[C@H](CCCCNC(=O)CC[C@@H](C(=O)N[C@@H](CCC(=O)O)C(=O)N[C@@H](C)C(=O)O)NC(=O)[C@H](Cc3csc5ccccc35)NC(=O)[C@H](Cc3ccsc3)NC4=O)NC(=O)[C@H](Cc3ccccc3)NC(=O)[C@H](C)NC(=O)C(C)(C)NC(=O)[C@H](Cc3cccc(C(=O)O)c3)NC(=O)[C@H](CC(=O)O)NC1=O)NC(=O)[C@H](CC(C)(C)C)NC(=O)[C@H](CC(=O)O)NC2=O (relative stereo) [I-348, Ac-PL3-Asp-Npg-B5-Asp-3COOHF-Aib-Ala-Phe-Lys*3-PyrS2-3Thi-BztA-GlnR*3-Glu-Ala-OH]
CC(=O)N1CCC[C@]12CC=CCCCC1(CCCC=CCCCOC(=O)N3CC[C@@]4(C3)NC(=O)[C@H](CCCCNC(=O)CC[C@@H](C(=O)N[C@@H](C)C(N)=O)NC(=O)[C@H](Cc3csc5ccccc35)NC(=O)[C@H](Cc3ccsc3)NC4=O)NC(=O)[C@H](CC3CCC3)NC(=O)[C@H](C)NC(=O)C(C)(C)NC(=O)[C@H](Cc3cccc(C(=O)O)c3)NC(=O)[C@H](CC(=O)O)NC1=O)NC(=O)[C@H](CC(C)(C)C)NC(=O)[C@H](CC(=O)O)NC2=O (relative stereo) [I-353, Ac-PL3-Asp-Npg-B5-Asp-3COOHF-Aib-Ala-Cba-Lys*3-PyrS2-3Thi-BztA-GlnR*3-Ala-NH2]
CCCC[C@@H]1NC(=O)[C@H](C)NC(=O)C(C)(C)NC(=O)[C@H](Cc2cccc(C(=O)O)c2)NC(=O)[C@H](CC(=O)O)NC(=O)C2(CCCC=CCCCOC(=O)N3CC[C@@]4(C3)NC(=O)[C@H](CCCCNC(=O)CC[C@@H](C(=O)N[C@@H](C)C(N)=O)NC(=O)[C@H](Cc3csc5ccccc35)NC(=O)[C@H](Cc3ccsc3)NC4=O)NC1=O)CCCC=CC[C@]1(CCCN1C(C)=O)C(=O)N[C@@H](CC(=O)O)C(=O)N[C@@H](CC(C)(C)C)C(=O)N2 (relative stereo) [I-362, Ac-PL3-Asp-Npg-B5-Asp-3COOHF-Aib-Ala-nLeu-Lys*3-PyrS2-3Thi-BztA-GlnR*3-Ala-NH2]

IC50, 200 to 750 nM:
CC(=O)N1CCC[C@]12CC=CCCCC1(CCCC=CCCCOC(=O)N3CC[C@@]4(C3)NC(=O)[C@H](CCCCNC(=O)CC[C@@H](C(=O)N[C@@H](C)C(N)=O)NC(=O)[C@H](Cc3csc5ccccc35)NC(=O)[C@H](Cc3ccsc3)NC4=O)NC(=O)[C@H](Cc3c[nH]nn3)NC(=O)[C@H](C)NC(=O)C(C)(C)NC(=O)[C@H](Cc3cccc(C(=O)O)c3)NC(=O)[C@H](CC(=O)O)NC1=O)NC(=O)[C@H](CC(C)(C)C)NC(=O)[C@H](CC(=O)O)NC2=O (relative stereo) [I-368, Ac-PL3-Asp-Npg-B5-Asp-3COOHF-Aib-Ala-4TriA-Lys*3-PyrS2-3Thi-BztA-GlnR*3-Ala-NH2]
CC(=O)N1CCC[C@]12CC=CCCCC1(CCCC=CCCCOC(=O)N3CC[C@@]4(C3)NC(=O)[C@H](CCCCNC(=O)CC[C@@H](C(=O)N[C@@H](C)C(N)=O)NC(=O)[C@H](Cc3csc5ccccc35)NC(=O)[C@H](Cc3ccsc3)NC4=O)NC(=O)[C@H](Cc3c[nH]cn3)NC(=O)[C@H](C)NC(=O)C(C)(C)NC(=O)[C@H](Cc3cccc(C(=O)O)c3)NC(=O)[C@H](CC(=O)O)NC1=O)NC(=O)[C@H](CC(C)(C)C)NC(=O)[C@H](CC(=O)O)NC2=O (relative stereo) [I-371, Ac-PL3-Asp-Npg-B5-Asp-3COOHF-Aib-Ala-His-Lys*3-PyrS2-3Thi-BztA-GlnR*3-Ala-NH2]
